Molecules are shown by their SMILES. Active and inactive are the calls of the source. No cut-off for these calls is given here.

Chains of the proteins cited; added tags and fusions are not shown. Lines headed by an entry give the natural chain unless they say otherwise; changes in a name come on top.
UniProt P10275: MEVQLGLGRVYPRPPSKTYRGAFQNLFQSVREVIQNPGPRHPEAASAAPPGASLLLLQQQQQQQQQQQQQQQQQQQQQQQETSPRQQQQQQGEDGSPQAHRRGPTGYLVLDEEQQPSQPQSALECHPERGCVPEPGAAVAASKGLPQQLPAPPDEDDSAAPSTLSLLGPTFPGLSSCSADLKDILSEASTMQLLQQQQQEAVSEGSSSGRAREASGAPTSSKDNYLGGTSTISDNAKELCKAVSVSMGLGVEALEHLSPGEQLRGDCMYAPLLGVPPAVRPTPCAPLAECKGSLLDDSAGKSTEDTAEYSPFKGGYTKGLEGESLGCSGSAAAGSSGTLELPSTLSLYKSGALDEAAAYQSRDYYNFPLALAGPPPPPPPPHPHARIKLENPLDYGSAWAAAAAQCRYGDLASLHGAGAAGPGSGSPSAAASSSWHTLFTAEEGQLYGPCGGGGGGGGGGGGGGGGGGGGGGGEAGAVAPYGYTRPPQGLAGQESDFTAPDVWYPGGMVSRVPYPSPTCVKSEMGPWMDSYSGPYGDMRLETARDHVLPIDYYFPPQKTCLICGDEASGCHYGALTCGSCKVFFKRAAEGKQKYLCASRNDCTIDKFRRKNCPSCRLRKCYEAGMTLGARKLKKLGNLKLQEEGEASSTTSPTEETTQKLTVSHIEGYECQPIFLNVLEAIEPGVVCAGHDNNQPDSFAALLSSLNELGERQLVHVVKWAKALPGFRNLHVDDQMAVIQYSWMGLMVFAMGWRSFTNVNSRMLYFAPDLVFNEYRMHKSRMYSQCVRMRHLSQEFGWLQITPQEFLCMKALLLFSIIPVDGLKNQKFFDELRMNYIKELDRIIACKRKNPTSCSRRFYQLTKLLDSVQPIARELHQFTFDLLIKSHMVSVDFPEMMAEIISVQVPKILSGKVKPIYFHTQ
UniProt Q96SW2: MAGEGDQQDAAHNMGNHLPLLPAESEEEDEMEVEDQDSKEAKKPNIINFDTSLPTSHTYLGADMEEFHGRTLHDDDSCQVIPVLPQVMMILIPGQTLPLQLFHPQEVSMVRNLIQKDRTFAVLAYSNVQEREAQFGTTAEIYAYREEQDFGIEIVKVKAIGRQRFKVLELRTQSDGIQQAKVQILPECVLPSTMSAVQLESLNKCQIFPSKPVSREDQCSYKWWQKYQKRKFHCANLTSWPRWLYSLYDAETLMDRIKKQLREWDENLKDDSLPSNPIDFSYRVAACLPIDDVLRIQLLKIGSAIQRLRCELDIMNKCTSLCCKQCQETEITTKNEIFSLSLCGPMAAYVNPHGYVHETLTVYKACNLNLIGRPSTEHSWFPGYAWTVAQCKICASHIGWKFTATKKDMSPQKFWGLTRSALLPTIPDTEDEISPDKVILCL

Assay type in all cases: cell-based
The target of experiment [1] is Protein cereblon/Androgen receptor (Homo sapiens, UniProt P10275+Q96SW2). The experiment in a line: Protac activity at CRBN/AR in human VCaP cells assessed as reduction in AR protein level at 100 nM measured after 3 hrs by western blot analysis.
Experiment [2] relates to Protein cereblon/Androgen receptor (Homo sapiens), P10275+Q96SW2 [T878A]. The experiment in a line: Protac activity at CRBN/AR T878A mutant in human LNCaP cells assessed as reduction in AR protein level at 100 nM measured after 6 hrs by western blot analysis. A general note: A western blot detects proteins with antibodies after separation by electrophoresis.
In experiment [3] the target is Androgen receptor (Homo sapiens) (UniProt P10275). The experiment in a line: Induction of AR degradation in human LNCaP cells at 100 nM treated for 3 hrs followed by treated with thalidomide for 2 hrs.
Experiment [4] has the same target. The experiment in a line: Induction of AR degradation in human VCaP cells at 100 nM treated for 3 hrs followed by treated with MLN4924 for 2 hrs.
The target is the same in experiment [5]. The experiment in a line: Induction of AR degradation in human LNCaP cells at 100 nM treated for 3 hrs followed by treated with MLN4924 for 2 hrs.
For experiment [6] the target is unchanged. The experiment in a line: Induction of AR degradation in human VCaP cells at 100 nM treated for 3 hrs followed by treated with MG132 for 2 hrs.
Experiment [7] shares this target. The experiment in a line: Induction of AR degradation in human LNCaP cells at 100 nM treated for 3 hrs followed by treated with ARi-184 for 2 hrs.
Experiment [8] shares this target. The experiment can be described thus: Induction of AR degradation in human LNCaP cells at 100 nM treated for 3 hrs followed by treated with MG132 for 2 hrs.
Experiment [9] has the same target. The experiment in a line: Induction of AR degradation in human VCaP cells at 100 nM treated for 3 hrs followed by treated with thalidomide for 2 hrs.
Experiment [10] has the same target. The experiment in a line: Induction of AR degradation in human VCaP cells at 100 nM treated for 3 hrs followed by treated with ARi-184 for 2 hrs.

In the case of `CC1(C)[C@H](NC(=O)c2ccc(N3CCC(CN4CCN(c5ccc6c(c5)C(=O)N(C5CCC(=O)NC5=O)C6=O)CC4)CC3)cc2)C(C)(C)[C@H]1Oc1ccc(C#N)c(Cl)c1` (stereo partly drawn), the result in experiment [1] and in experiment [2] was Active.

Turning to `CC1(C)[C@H](NC(=O)c2ccc(N3CCC(N4CCN(c5ccc6c(c5)C(=O)N(C5CCC(=O)NC5=O)C6=O)CC4)CC3)cc2)C(C)(C)[C@H]1Oc1ccc(C#N)c(Cl)c1` (stereo partly drawn), the outcome in [1] and in [2] was Active.

Consider `CC1(C)[C@H](NC(=O)c2ccc(N3CCN(C4CCN(c5ccc6c(c5)C(=O)N(C5CCC(=O)NC5=O)C6=O)CC4)CC3)cc2)C(C)(C)[C@H]1Oc1ccc(C#N)c(Cl)c1` (stereo partly drawn), for which the outcome in experiment [1] and in experiment [2] was Active.

In the case of `CC1(C)[C@H](NC(=O)c2ccc(N3CCN(CC4CCN(c5ccc6c(c5)C(=O)N(C5CCC(=O)NC5=O)C6=O)CC4)CC3)cc2)C(C)(C)[C@H]1Oc1ccc(C#N)c(Cl)c1` (stereo partly drawn), the outcome in [3], in experiment [4], in experiment [5], in experiment [6], in experiment [7] and in [8] was inactive. Besides, the outcome in [9] and in experiment [10] was inactive. Also, the result in experiment [1] and in experiment [2] was Active.

In the case of `CC1(C)[C@H](NC(=O)c2ccc(N3CCN(CC4CN(c5ccc6c(c5)C(=O)N(C5CCC(=O)NC5=O)C6=O)C4)CC3)cc2)C(C)(C)[C@H]1Oc1ccc(C#N)c(Cl)c1` (stereo partly drawn), the result in experiment [1] and in [2] was Active.
